Like-named read-outs stand apart in the source and are kept apart here.
Legend:
mu opioid receptor = mu opioid receptor (Homo sapiens, UniProt P35372); assay: Radioligand binding assay, [3H]DAMGO, membranes of CHO cells transfected with human mu opioid receptor
kappa opioid receptor = kappa opioid receptor (Homo sapiens, UniProt P41145); assay: Radioligand binding assay, [3H]U69593, membranes of CHO cells transfected with human kappa opioid receptor
[1] = target: nociceptin (NOP) receptor (Homo sapiens, UniProt P41146); assay: Radioligand binding assay, [3H]N/OFQ, membranes of CHO cells transfected with human NOP receptor
[2] = read-out: Receptor Binding Ki (nM) μ, Compounds of Formula (III), CHO cell membranes
[3] = read-out: Receptor Binding Ki (nM) κ, Compounds of Formula (III), CHO cell membranes
[4] = read-out: Receptor Binding Ki (nM) NOP, Compounds of Formula (III), CHO cell membranes

Protein sequences, listed by entry. Tags and fused reporters are not part of them.
UniProt P35372, whole entry: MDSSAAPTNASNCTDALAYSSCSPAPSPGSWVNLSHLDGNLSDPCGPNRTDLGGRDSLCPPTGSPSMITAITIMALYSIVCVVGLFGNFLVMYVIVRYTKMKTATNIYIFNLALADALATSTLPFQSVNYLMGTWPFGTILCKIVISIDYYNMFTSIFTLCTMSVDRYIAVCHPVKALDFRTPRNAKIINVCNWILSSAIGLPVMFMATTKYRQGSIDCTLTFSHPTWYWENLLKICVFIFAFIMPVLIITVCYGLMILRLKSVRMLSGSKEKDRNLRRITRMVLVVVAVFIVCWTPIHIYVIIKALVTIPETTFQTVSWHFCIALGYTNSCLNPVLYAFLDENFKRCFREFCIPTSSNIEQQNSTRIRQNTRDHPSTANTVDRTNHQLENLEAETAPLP
UniProt P41145, whole entry: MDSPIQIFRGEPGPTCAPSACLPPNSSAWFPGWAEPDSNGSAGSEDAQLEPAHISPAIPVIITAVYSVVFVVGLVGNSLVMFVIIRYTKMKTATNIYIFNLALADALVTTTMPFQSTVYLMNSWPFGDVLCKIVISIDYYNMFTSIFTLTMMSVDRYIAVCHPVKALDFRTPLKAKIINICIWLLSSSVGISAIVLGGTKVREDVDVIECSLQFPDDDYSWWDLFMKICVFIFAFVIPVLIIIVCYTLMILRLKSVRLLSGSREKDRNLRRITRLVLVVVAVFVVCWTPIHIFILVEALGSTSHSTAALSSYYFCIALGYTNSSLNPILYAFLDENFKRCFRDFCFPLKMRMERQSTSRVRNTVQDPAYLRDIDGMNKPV
UniProt P41146, whole entry: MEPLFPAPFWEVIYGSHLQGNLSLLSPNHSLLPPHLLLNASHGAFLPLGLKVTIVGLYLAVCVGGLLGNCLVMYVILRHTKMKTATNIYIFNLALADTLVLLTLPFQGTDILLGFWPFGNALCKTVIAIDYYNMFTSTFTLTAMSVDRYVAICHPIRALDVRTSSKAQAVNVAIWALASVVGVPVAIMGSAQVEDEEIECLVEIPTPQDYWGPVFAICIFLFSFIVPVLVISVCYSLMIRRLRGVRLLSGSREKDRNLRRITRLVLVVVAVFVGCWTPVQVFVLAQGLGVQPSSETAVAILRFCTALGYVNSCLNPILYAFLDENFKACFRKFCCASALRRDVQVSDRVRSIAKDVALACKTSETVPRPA

SMILES	Ki (mu opioid receptor; [2])	Ki (kappa opioid receptor; [3])	Ki [1, 4]	Ki (mu opioid receptor; read-out: Receptor Binding Ki (nM) μ, Compounds of Formula (II), CHO cell membranes)	Ki (kappa opioid receptor; read-out: Receptor Binding Ki (nM) κ, Compounds of Formula (II), CHO cell membranes)	Ki ([1]; read-out: Receptor Binding Ki (nM) NOP, Compounds of Formula (II), CHO cell membranes)
CC(C)[C@H]1CC[C@@H](N2CCC(N3C(=O)/C(=C\C(=O)CCC(N)=O)c4ccccc43)CC2)CC1	15 to 150 nM	150 to 5000 nM	< 15 nM			
CC(C)[C@H]1CC[C@@H](N2CCC(N3C(=O)/C(=C\C(N)=O)c4ccccc43)CC2)CC1	15 to 150 nM	15 to 150 nM	< 15 nM			
CC(C)[C@H]1CC[C@@H](N2CCC(N3C(=O)C(CC#N)c4ccccc43)CC2)CC1 (stereo partly drawn)	< 15 nM	150 to 5000 nM	< 15 nM			
CC(=O)NC1C(=O)N(C2CCN([C@H]3CC[C@@H](C(C)C)CC3)CC2)c2ccccc21 (stereo partly drawn)	15 to 150 nM	150 to 5000 nM	< 15 nM			
CC(C)[C@H]1CC[C@@H](N2CCC(N3C(=O)C(CCO)c4ccccc43)CC2)CC1 (stereo partly drawn)	< 15 nM	150 to 5000 nM	< 15 nM			
CC(=O)NCCC1C(=O)N(C2CCN([C@H]3CC[C@@H](C(C)C)CC3)CC2)c2ccccc21 (stereo partly drawn)	15 to 150 nM	150 to 5000 nM	< 15 nM			
CC(C)[C@H]1CC[C@@H](N2CCC(N3C(=O)C(CC4CCOC4)c4ccccc43)CC2)CC1 (stereo partly drawn)	15 to 150 nM	15 to 150 nM	< 15 nM			
OCc1cc2ccccc2n1C1CCN([C@@H]2CC[C@@H]3CCCc4cccc2c43)CC1				15 to 150 nM	150 to 5000 nM	< 15 nM
CC(C)[C@H]1CC[C@@H](N2CCC(N3C(=O)C(CC(N)=O)c4ccccc43)CC2)CC1 (stereo partly drawn)	< 15 nM	150 to 5000 nM	< 15 nM			
CC(C)[C@H]1CC[C@@H](N2CCC(N3C(=O)C(CC(=O)NO)c4ccccc43)CC2)CC1 (stereo partly drawn)	15 to 150 nM	150 to 5000 nM	< 15 nM			
CC(C)[C@H]1CC[C@@H](N2CCC(N3C(=O)/C(=C\C#N)c4ccccc43)CC2)CC1	15 to 150 nM	15 to 150 nM	< 15 nM			
CO/N=C1\C(=O)N(C2CCN([C@H]3CC[C@@H](C(C)C)CC3)CC2)c2ccccc21	15 to 150 nM	150 to 5000 nM	< 15 nM			
CC(C)OC(=O)CC1C(=O)N(C2CCN([C@H]3CC[C@@H](C(C)C)CC3)CC2)c2ccccc21 (stereo partly drawn)	15 to 150 nM	150 to 5000 nM	15 to 150 nM			
CC(C)[C@H]1CC[C@@H](N2CCC(N3C(=O)C(CC4CCNC4)c4ccccc43)CC2)CC1 (stereo partly drawn)	< 15 nM	15 to 150 nM	< 15 nM			
CC(C)[C@H]1CC[C@@H](N2CCC(N3C(=O)C(CCNC(=O)[C@@H](N)CCCNC(=N)N)c4ccccc43)CC2)CC1 (stereo partly drawn)	< 15 nM	150 to 5000 nM	< 15 nM			
CNNC(=O)CC1C(=O)N(C2CCN([C@H]3CC[C@@H](C(C)C)CC3)CC2)c2ccccc21 (stereo partly drawn)	15 to 150 nM	150 to 5000 nM	< 15 nM			
CONC(=O)CC1C(=O)N(C2CCN(C3CCC(C)(C)CC3)CC2)c2ccccc21 (stereo not drawn)	< 15 nM	150 to 5000 nM	15 to 150 nM			
CCOC(=O)CC1C(=O)N(C2CCN([C@H]3CC[C@@H](C(C)C)CC3)CC2)c2ccccc21 (stereo partly drawn)	15 to 150 nM	15 to 150 nM	< 15 nM			
CC(=O)NNC(=O)CC1C(=O)N(C2CCN([C@H]3CC[C@@H](C(C)C)CC3)CC2)c2ccccc21 (stereo partly drawn)	15 to 150 nM	15 to 150 nM	< 15 nM			
COC(=O)CC1C(=O)N(C2CCN([C@H]3CC[C@@H](C(C)C)CC3)CC2)c2ccccc21 (stereo partly drawn)	< 15 nM	< 15 nM	< 15 nM			
CC(C)[C@H]1CC[C@@H](N2CCC(N3C(=O)/C(=N\OCCCON)c4ccccc43)CC2)CC1	15 to 150 nM	15 to 150 nM	150 to 5000 nM			
CC(C)[C@H]1CC[C@@H](N2CCC(N3C(=O)C(CC(=O)NOCc4ccccc4)c4ccccc43)CC2)CC1 (stereo partly drawn)	15 to 150 nM	15 to 150 nM	< 15 nM			
CONC(=O)CC1C(=O)N(C2CCN([C@H]3CC[C@@H](C(C)C)CC3)CC2)c2ccccc21 (stereo partly drawn)	15 to 150 nM	150 to 5000 nM	< 15 nM			
CC(=O)N/N=C1\C(=O)N(C2CCN([C@H]3CC[C@@H](C(C)C)CC3)CC2)c2ccccc21	15 to 150 nM	15 to 150 nM	15 to 150 nM			
CC(C)[C@H]1CC[C@@H](N2CCC(N3C(=O)C(CC(=O)NCCC(N)=O)c4ccccc43)CC2)CC1 (stereo partly drawn)	15 to 150 nM	> 5000 nM	15 to 150 nM			
CCOC(=O)NC1C(=O)N(C2CCN([C@H]3CC[C@@H](C(C)C)CC3)CC2)c2ccccc21 (stereo partly drawn)	< 15 nM	15 to 150 nM	< 15 nM			
CC(C)[C@H]1CC[C@@H](N2CCC(N3C(=O)/C(=N\O)c4ccccc43)CC2)CC1	15 to 150 nM	15 to 150 nM	< 15 nM			

From patent publication USRE49825E1, “Piperidinyl nociceptin receptor compounds” (Astraea Therapeutics, LLC, priority 2015, dated 2024)
